Reference: US6673801B1, “Dihydroxyhexanoic acid derivatives” (Pfizer Inc., priority 1998, dated 2004)

Conditions: pH 7

CC(C)(O)CC[C@H](C[C@H](O)[C@H](Cc1ccccc1)NC(=O)c1cnc2c(F)c(F)ccc2c1)C(N)=O [Example 3]
Solubility: >250 µg/mL
